Laboratory results reported in US20030125352A1, “Therapeutic tropane compounds” (priority 2001, published 2003).

Protein sequences, listed by entry. Tags and fused reporters are not part of them.
UniProt Q9GJT6, whole entry: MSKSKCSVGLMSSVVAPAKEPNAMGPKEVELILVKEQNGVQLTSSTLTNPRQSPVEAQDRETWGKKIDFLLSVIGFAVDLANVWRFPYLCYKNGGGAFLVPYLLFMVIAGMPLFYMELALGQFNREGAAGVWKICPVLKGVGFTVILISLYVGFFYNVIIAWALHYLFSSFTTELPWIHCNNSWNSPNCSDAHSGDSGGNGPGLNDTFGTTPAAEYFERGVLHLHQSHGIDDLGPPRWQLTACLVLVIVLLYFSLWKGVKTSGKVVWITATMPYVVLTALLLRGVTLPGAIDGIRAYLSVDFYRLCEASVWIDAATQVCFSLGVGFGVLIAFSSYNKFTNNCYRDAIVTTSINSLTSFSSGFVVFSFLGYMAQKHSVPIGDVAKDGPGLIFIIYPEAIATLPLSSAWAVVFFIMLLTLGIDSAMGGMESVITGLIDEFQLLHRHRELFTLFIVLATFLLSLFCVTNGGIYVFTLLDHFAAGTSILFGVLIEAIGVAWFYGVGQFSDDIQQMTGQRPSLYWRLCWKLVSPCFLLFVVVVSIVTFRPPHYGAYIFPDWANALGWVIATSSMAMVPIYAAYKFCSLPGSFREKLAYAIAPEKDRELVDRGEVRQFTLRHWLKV

Molecular target: dopamine transporter (Macaca fascicularis, UniProt Q9GJT6)
Test: Dopamine transporter assay: inhibition of {3H}WIN 35,428 binding in caudate-putamen membranes
Design: species or system rhesus or cynomolgus monkey
Settings: read-out: IC50 (nM) DAT, Table 1, monkey caudate-putamen

Question: Which IC50 does the source give for `COC(=O)C1C(c2ccc(Cl)c(Cl)c2)CC2CC(O)C1N2C` (centres unmarked) here?
Answer: The IC50 was 3.04 nM.

Question: How did the IC50 turn out when `COC(=O)C1C(c2ccc(Cl)c(Cl)c2)CC2C(O)CC1N2C` (centres unmarked) was run?
Answer: Its IC50 is 33.2 nM.
